# Measurements reported in US6696425B2, “Method of treating dry eye disease with purinergic receptor agonists” (Inspire Pharmaceuticals, Inc., priority 1997, dated 2004).
# The chains behind the UniProt entries cited, without tags or fusion partners. Where a name states a change or a piece, a line headed by the entry shows the natural chain unless it says otherwise.
# UniProt P47900: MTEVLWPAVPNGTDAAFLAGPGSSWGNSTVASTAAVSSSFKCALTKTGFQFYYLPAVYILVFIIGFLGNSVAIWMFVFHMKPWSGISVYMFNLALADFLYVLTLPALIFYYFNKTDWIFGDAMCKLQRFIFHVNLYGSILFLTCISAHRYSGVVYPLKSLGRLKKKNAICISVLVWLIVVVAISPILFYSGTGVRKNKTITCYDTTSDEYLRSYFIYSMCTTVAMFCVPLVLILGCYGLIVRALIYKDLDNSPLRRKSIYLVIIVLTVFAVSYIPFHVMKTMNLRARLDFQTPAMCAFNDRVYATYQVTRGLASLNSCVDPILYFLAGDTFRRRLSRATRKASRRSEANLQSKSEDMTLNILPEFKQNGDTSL
# Target: human P2Y1 receptor (Homo sapiens, UniProt P47900)
# Assay: Intracellular Ca2+ mobilization (FLIPR) in 1321N1 cells expressing P2Y1
# Assay type: cell-based
# Settings: 1321 astrocytoma cells, n=3
# Method: Average Fluorescence Units (AFU) corresponding to peak height were captured on disk and exported for further analysis. Changes in fluorescence data corresponding to concentrations of intracellular Ca^2+ were normalized to the response of the cognate agonists (2MeSADP for P2Y1 receptor, ATP for P2Y2 receptor, UTP for P2Y4 receptor, UDP for P2Y6 receptor, and ATP for P2Y11 receptor).
# Agonist potencies were calculated using a four-parameter logistic equation and the GraphPad software package (San Diego, Calif.). […] Three experiments using triplicate assays were conducted on separate days for each P2Y receptor subtype.
substance,measurement,setting,value
Diadenosine diphosphate [Ap2A],"pD2 for intracellular calcium mobilization, P2Y1 receptor",,5.24
same,EC50,"read-out: EC50 for intracellular calcium mobilization, P2Y1 receptor",5.67 µM
